Target: T1, Mcl-1/Bim interaction, recombinant human Mcl-1 (171-327) (Homo sapiens, UniProt Q07820)
T1 construct: made in house
Experiment: Cell free Mcl-1: Bim Affinity Assay (Mcl-1 HTRF)
Format: binding
Conditions: cell free Mcl-1:Bim TR-FRET
Description: Cell free Mcl-1: Bim Affinity Assay (Mcl-1 HTRF)
The inhibition of the Mcl-1/Bim interaction was measured using a time-resolved fluorescence resonance energy transfer (TR-FRET) assay. […] A biotinylated peptide derived from human Bim (residues 51-76) was purchased from CPC Scientific (San Jose, CA). The TR-FRET assay was conducted in a 384-well white OptiPlatem (PerkinElmer, Waltham, MA) in a total volume of 40 μL. […] The reaction plates were further incubated overnight and then were read on an Envision® multimode reader (PerkinElmer). […] The IC50 values of test compounds were determined from duplicate data by analyzing competition curves using a four-parameter sigmoidal model in GraphPad Prism (GraphPad Software, San Diego, CA) or in Genedata Screener® (Genedata, Basel, Switzerland).

Chains of the proteins cited; added tags and fusions are not shown. Residues count along the entry.
UniProt Q07820, 171-327: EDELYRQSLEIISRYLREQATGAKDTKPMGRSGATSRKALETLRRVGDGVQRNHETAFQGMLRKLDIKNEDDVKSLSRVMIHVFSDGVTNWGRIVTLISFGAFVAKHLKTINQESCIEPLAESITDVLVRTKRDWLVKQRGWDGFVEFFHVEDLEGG

`C=C1CCC[C@H](C)[C@@H](C)S(=O)(=O)NC(=O)c2ccc3c(c2)N(C[C@@H]2CC[C@@H]12)C[C@@]1(CCCc2cc(Cl)ccc21)CO3` [Example 581, (1S,3′R,6′R,11′S,12′R)-6-chloro-11′,12′-dimethyl-7′-methylidene-3,4-dihydro-2H,15′H-spiro[naphthalene-1,22′-[20]oxa[13]thia[1,14]diazatetracyclo[14.7.2.0^3,6.0^19,24]pentacosa [16,18,24]trien]-15′-one 13′,13′-dioxide] gave an IC50 of 9.43 nM.

Source: patent publication US12091425B2 (AMGEN INC., priority 2016, dated 2024)
